The source of these data is US6953793B2 (priority 2000, dated 2005).

Chains of the proteins cited; added tags and fusions are not shown. Residues count along the entry.
UniProt P25774, 115-331: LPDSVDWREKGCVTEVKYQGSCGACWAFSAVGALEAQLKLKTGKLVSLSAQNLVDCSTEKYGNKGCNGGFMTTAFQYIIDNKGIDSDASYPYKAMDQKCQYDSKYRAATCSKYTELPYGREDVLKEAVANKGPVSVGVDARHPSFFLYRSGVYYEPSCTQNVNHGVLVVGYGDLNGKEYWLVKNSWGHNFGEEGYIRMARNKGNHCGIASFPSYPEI

The target in this test is T1, Recombinant human cathepsin S (CatS) (Homo sapiens, UniProt P25774).
T1 construct: made in house; host or cells: baculovirus system (insect cells)
Nature of the test: biochemical.
As for `CC(=O)N1CCc2c(c(-c3ccc(Cl)c(C)c3)nn2C[C@@H](O)CN2CCC(n3c(=O)[nH]c4ccc(Cl)cc43)CC2)C1` [Example 293, (S)-1-(1-{3-[5-Acetyl-3-(4-chloro-3-methyl-phenyl)-4,5,6,7-tetrahydro-pyrazolo[4,3-c]pyridin-1-yl]-2-hydroxy-propyl}-piperidin-4-yl)-6-chloro-1,3-dihydro-benzoimidazol-2-one], the IC50 turned out to be 160 nM.

Regarding `CS(=O)(=O)N1CCc2c(c(-c3ccc(Br)cc3)nn2CC(O)CN2CCC(N3c4ccc(Cl)cc4CNS3(=O)=O)CC2)C1` (centres unmarked) [Example 132, 1-[3-(4-Bromo-phenyl)-5-methanesulfonyl-4,5,6,7-tetrahydro-pyrazolo[4,3-c]pyridin-1-yl]-3-[4-(6-chloro-2,2-dioxo-3,4-dihydro-2H-2λ^6-2,1,3-benzothiadiazin-1-yl)-piperidin-1-yl]-propan-2-ol], the IC50 stood at 110 nM.

As to `Cn1c(=O)n(C2CCN(CCCn3nc(-c4ccc(Br)cc4)c4c3CCN(C(=O)Nc3ccccc3)C4)CC2)c2ccccc21` [Example 348, 3-(4-Bromo-phenyl)-1-{3-[4-(3-methyl-2-oxo-2,3-dihydro-benzoimidazol-1-yl)-piperidin-1-yl]-propyl}-1,4,6,7-tetrahydro-pyrazolo[4,3-c]pyridine-5-carboxylic acid phenylamide], the IC50 was found to be 190 nM.

Consider `CC(=O)N1CCc2c(c(-c3ccc(Br)cc3)nn2CC(O)CN2CCC(n3c(=O)[nH]c4cc(C)ccc43)CC2)C1` (centres unmarked) [Example 273, 1-(1-{3-[5-Acetyl-3-(4-bromo-phenyl)-4,5,6,7-tetrahydro-pyrazolo[4,3-c]pyridin-1-yl]-2-hydroxy-propyl}-piperidin-4-yl)-5-methyl-1,3-dihydro-benzoimidazol-2-one], for which the IC50 came to 90 nM.

Turning to `CC(=O)N1CCc2c(c(-c3ccc(C(F)(F)F)cc3)nn2CC(O)CN2CCC(c3nc4ccc(C)cc4o3)CC2)C1` (centres unmarked) [Example 399, 1-[1-{2-Hydroxy-3-[4-(6-methyl-benzooxazol-2-yl)-piperidin-1-yl]-propyl}-3-(4-trifluoromethyl-phenyl)-1,4,6,7-tetrahydro-pyrazolo[4,3-c]pyridin-5-yl]-ethanone], the IC50 turned out to be 510 nM.

Regarding `CCOC(=O)Cn1c(=O)n(C2CCN(CC(O)Cn3nc(-c4ccc(Br)cc4)c4c3CCN(S(C)(=O)=O)C4)CC2)c2ccccc21` (centres unmarked) [Example 379, [3-(1-{3-[3-(4-Bromo-phenyl)-5-methanesulfonyl-4,5,6,7-tetrahydro-pyrazolo[4,3-c]pyridin-1-yl]-2-hydroxy-propyl}-piperidin-4-yl)-2-oxo-2,3-dihydro-benzoimidazol-1-yl]-acetic acid ethyl ester], the IC50 is 70 nM.

In the case of `CC(=O)N1CCc2c(c(-c3ccc(C(F)(F)F)cc3)nn2CC(O)CN2CCC(c3nc4ccccc4o3)CC2)C1` (centres unmarked) [Example 398, 1-[1-[3-(4-Benzooxazol-2-yl-piperidin-1-yl)-2-hydroxy-propyl]-3-(4-trifluoromethyl-phenyl)-1,4,6,7-tetrahydro-pyrazolo[4,3-c]pyridin-5-yl]-ethanone], the IC50 stood at 190 nM.

Consider `CS(=O)(=O)N1CCc2c(c(-c3ccc(C(F)(F)F)cc3)nn2CC(O)CN2CCC(N3c4cc(Cl)ccc4NS3(=O)=O)CC2)C1` (centres unmarked) [Example 133, 1-[4-(6-Chloro-2,2-dioxo-2,3-dihydro-2λ^6-2,1,3-benzothiadiazol-1-yl)-piperidin-1-yl]-3-[5-methanesulfonyl-3-(4-trifluoromethyl-phenyl)-4,5,6,7-tetrahydro-pyrazolo[4,3-c]pyridin-1-yl]-propan-2-ol], for which the IC50 was 150 nM.

As to `CC(=O)N1CCc2c(c(-c3ccc(Cl)c(C)c3)nn2CC(O)CN2CCC(N3CCc4cc([N+](=O)[O-])ccc43)CC2)C1` (centres unmarked) [Example 174, 1-(3-(4-Chloro-3-methyl-phenyl)-1-{2-hydroxy-3-[4-(5-nitro-2,3-dihydro-indol-1-yl)-piperidin-1-yl]-propyl}-1,4,6,7-tetrahydro-pyrazolo[4,3-c]pyridin-5-yl)-ethanone], the IC50 came to 850 nM.

Take `CC(=O)N1CCc2c(c(-c3ccc(Br)cc3)nn2CC(O)CN2CCC(n3c(=O)[nH]c4cc(Cl)c(Cl)cc43)CC2)C1` (centres unmarked) [Example 275, 1-(1-{3-[5-Acetyl-3-(4-bromo-phenyl)-4,5,6,7-tetrahydro-pyrazolo[4,3-c]pyridin-1-yl]-2-hydroxy-propyl}-piperidin-4-yl)-5,6-dichloro-1,3-dihydro-benzoimidazol-2-one]: the IC50 worked out at 120 nM.

Consider `Cn1c(=O)n(C2CCN(CCCn3nc(-c4ccc(Br)cc4)c4c3CCN(S(=O)(=O)Cc3ccccc3)C4)CC2)c2ccccc21` [Example 354, 1-(1-{3-[3-(4-Bromo-phenyl)-5-phenylmethanesulfonyl-4,5,6,7-tetrahydro-pyrazolo[4,3-c]pyridin-1-yl]-propyl}-piperidin-4-yl)-3-methyl-1,3-dihydro-benzoimidazol-2-one], for which the IC50 was 930 nM.

As to `CS(=O)(=O)N1CCc2c(c(-c3ccc(C(F)(F)F)cc3)nn2CC(O)CN2CCC(n3c(=O)n(Cc4ccncc4)c4ccccc43)CC2)C1` (centres unmarked) [Example 384, 1-(1-{2-Hydroxy-3-[5-methanesulfonyl-3-(4-trifluoromethyl-phenyl)-4,5,6,7-tetrahydro-pyrazolo[4,3-c]pyridin-1-yl]-propyl}-piperidin-4-yl)-3-pyridin-4-ylmethyl-1,3-dihydro-benzoimidazol-2-one], the IC50 is 170 nM.

Take `CC(=O)N1CCc2c(c(-c3ccc(Br)cc3)nn2CC(O)CN2CCC(n3c(=O)oc4cccc(C)c43)CC2)C1` (centres unmarked) [Example 387, 3-(1-{3-[5-Acetyl-3-(4-bromo-phenyl)-4,5,6,7-tetrahydro-pyrazolo[4,3-c]pyridin-1-yl]-2-hydroxy-propyl}-piperidin-4-yl)-4-methyl-3H-benzooxazol-2-one]: the IC50 is 340 nM.

As for `CC(=O)N1CCc2c(c(-c3ccc(I)cc3)nn2CC(O)CN2CCC(n3c(=O)[nH]c4ccc(C#N)cc43)CC2)C1` (centres unmarked) [Example 268, 3-(1-{3-[5-Acetyl-3-(4-iodo-phenyl)-4,5,6,7-tetrahydro-pyrazolo[4,3-c]pyridin-1-yl]-2-hydroxy-propyl}-piperidin-4-yl)-2-oxo-2,3-dihydro-1H-benzoimidazole-5-carbonitrile], the IC50 was 300 nM.

On to `CC(=O)N1CCc2c(c(-c3ccc(Cl)c(C)c3)nn2CC(O)CN2CCC(n3c(=O)n(Cc4ccccc4)c4ccccc43)CC2)C1` (centres unmarked) [Example 264, 1-(1-{3-[5-Acetyl-3-(4-chloro-3-methyl-phenyl)-4,5,6,7-tetrahydro-pyrazolo[4,3-c]pyridin-1-yl]-2-hydroxy-propyl}-piperidin-4-yl)-3-benzyl-1,3-dihydro-benzoimidazol-2-one], for which the IC50 was 340 nM.

Consider `CC(=O)N1CCc2c(c(-c3ccc(I)cc3)nn2CC(O)CN2CCC(n3c(=O)[nH]c4ccccc43)CC2)C1` (centres unmarked) [Example 253, 1-(1-{3-[5-Acetyl-3-(4-iodo-phenyl)-4,5,6,7-tetrahydro-pyrazolo[4,3-c]pyridin-1-yl]-2-hydroxy-propyl}-piperidin-4-yl)-1,3-dihydro-benzoimidazol-2-one], for which the IC50 was found to be 140 nM.

On to `CC(=O)N1CCc2c(c(-c3ccc(Cl)cc3)nn2CC(O)CN2CCC(Nc3cc(Cl)ccc3C)CC2)C1` (centres unmarked) [Example 226, 1-[1-{3-[4-(5-Chloro-2-methyl-phenylamino)-piperidin-1-yl]-2-hydroxy-propyl}-3-(4-chloro-phenyl)-1,4,6,7-tetrahydro-pyrazolo[4,3-c]pyridin-5-yl]-ethanone], for which the IC50 was 750 nM.

Regarding `NC(=O)N1CCc2c(c(-c3ccc(Br)cc3)nn2CC(O)CN2CCC(n3c(=O)[nH]c4cccnc43)CC2)C1` (centres unmarked) [Example 374, 3-(4-Bromo-phenyl)-1-{2-hydroxy-3-[4-(2-oxo-1,2-dihydro-imidazo[4,5-b]pyridin-3-yl)-piperidin-1-yl]-propyl}-1,4,6,7-tetrahydro-pyrazolo[4,3-c]pyridine-5-carboxylic acid amide], the concentration for half-maximal inhibition (IC50) is 80 nM.

For `Cn1c(=O)n(C2CCN(CCCn3nc(-c4ccc(C(F)(F)F)cc4)c4c3CCN(C(=O)OCc3ccccc3)C4)CC2)c2ccccc21` [Example 345, 1-{3-[4-(3-Methyl-2-oxo-2,3-dihydro-benzoimidazol-1-yl)-piperidin-1-yl]-propyl}-3-(4-trifluoromethyl-phenyl)-1,4,6,7-tetrahydro-pyrazolo[4,3-c]pyridine-5-carboxylic acid benzyl ester], the IC50 came out at 550 nM.

`CCn1c(=O)n(C2CCN(CCCn3nc(-c4ccc(Br)cc4)c4c3CCN(S(C)(=O)=O)C4)CC2)c2nc(OC)ccc21` [Example 340, 3-(1-{3-[3-(4-Bromo-phenyl)-5-methanesulfonyl-4,5,6,7-tetrahydro-pyrazolo[4,3-c]pyridin-1-yl]-propyl}-piperidin-4-yl)-1-ethyl-5-methoxy-1,3-dihydro-imidazo[4,5-b]pyridin-2-one]: the IC50 is 90 nM.

On to `CC(=O)N1CCc2c(c(-c3ccc(C(F)(F)F)cc3)nn2CC(O)CN2CCC(Nc3c(Cl)cncc3Cl)CC2)C1` (centres unmarked) [Example 110, 1-[1-{3-[4-(3,5-Dichloro-pyridin-4-ylamino)-piperidin-1-yl]-2-hydroxy-propyl}-3-(4-trifluoromethyl-phenyl)-1,4,6,7-tetrahydro-pyrazolo[4,3-c]pyridin-5-yl]-ethanone], for which the IC50 is 330 nM.

For `CS(=O)(=O)N1CCc2c(c(-c3ccc(C(F)(F)F)cc3)nn2CCCN2CCC(n3ccc4ccc(Cl)cc43)CC2)C1` [Example 193, 1-{3-[4-(6-Chloro-indol-1-yl)-piperidin-1-yl]-propyl}-5-methanesulfonyl-3-(4-trifluoromethyl-phenyl)-4,5,6,7-tetrahydro-1H-pyrazolo[4,3-c]pyridine], the IC50 stood at 440 nM.

Regarding `CCOC(=O)c1ccc2c(c1)oc(=O)n2C1CCN(CC(O)Cn2nc(-c3ccc(Br)cc3)c3c2CCN(C(C)=O)C3)CC1` (centres unmarked) [Example 388, 3-(1-{3-[5-Acetyl-3-(4-bromo-phenyl)-4,5,6,7-tetrahydro-pyrazolo[4,3-c]pyridin-1-yl]-2-hydroxy-propyl}-piperidin-4-yl)-2-oxo-2,3-dihydro-benzooxazole-6-carboxylic acid ethyl ester], the IC50 worked out at 320 nM.
